Assay results reported in patent publication US12528818B2, “Compositions and methods for inhibition of RAS” (Leidos Biomedical Research, Inc., priority 2021, dated 2026).

Key:
[1] = target: Avi-KRAS G12C (1-169) GppNHp/RAF1 RBD-3xFLAG (52-151) (Homo sapiens, UniProt P01116, G12C); experiment: biochemical; conditions: Raf1-GppNHp-KRAS G12C disruption, Raf1 RBD-KRAS G12C-GppNHp disruption assay IC50
[2] = target: GDP-loaded KRAS4b (amino acids 1-169) G12C/C118S protein (Homo sapiens, UniProt P01116, C118S/G12C); experiment: Covalent cysteine 12 modification by MALDI-TOF MS, GDP-loaded KRAS G12C; type: biochemical; conditions: 15 minutes reaction time, compound 95 or later using 1 μM proteins
[3] = target: T1, GTP-loaded KRAS4b (amino acids 1-169) G12C/C118S protein (Homo sapiens, UniProt P01116, C118S/G12C); experiment: Covalent cysteine 12 modification by MALDI-TOF MS, GTP-loaded KRAS G12C; type: biochemical; conditions: 15 minutes reaction time, compound 95 or later using 1 μM proteins
T1 construct: KRAS4b (amino acids 1-169) G12C/C118S protein; made in house

[4] = target: GppNHp-loaded KRAS4b (amino acids 1-169) G12C/C118S protein (Homo sapiens, UniProt P01116, C118S/G12C); experiment: Covalent cysteine 12 modification by MALDI-TOF MS, GppNHp-loaded KRAS G12C; type: biochemical; conditions: 15 minutes reaction time, compound 95 or later using 1 μM proteins

IC50 [1] [µM]	GDP-KRAS G12C percent of modification [2]	GTP-KRAS G12C percent of modification [3]	GppNHp-KRAS G12C percent of modification [4]	SMILES
< 0.5	A (percent of modification ≥70%)	A (percent of modification ≥70%)	A (percent of modification ≥70%)	C=CC(=O)N1CCC(N(C)c2nc(OC[C@@H]3C[C@@H](OC)CN3C)nc3c(F)c(-c4ccc(F)c5sc(N)c(C#N)c45)ccc23)[C@H]1C (stereo partly drawn) [Compound 430]
< 0.5	A (percent of modification ≥70%)	A (percent of modification ≥70%)	A (percent of modification ≥70%)	C=CC(=O)N1CC[C@@H](N(C)c2nc(OC[C@@]34CCCN3C[C@H](F)C4)nc3c(F)c(-c4ccc(F)c5sc(N)nc45)c(C(F)(F)F)cc23)C1 (single isomer, unassigned) [Compound 239]
< 0.5	A (percent of modification ≥70%)	C (10%≤percent of modification <50%)	A (percent of modification ≥70%)	C=CC(=O)N1[C@@H](C)CN(c2nc(OC[C@@]34CCCN3C[C@H](OC)C4)nc3c(F)c(-c4ccc(F)c5sc(N)c(C#N)c45)c(C(F)(F)F)cc23)C[C@@H]1C (atropisomer, axis not shown) [Compound 364]
< 0.5	A (percent of modification ≥70%)	C (10%≤percent of modification <50%)	A (percent of modification ≥70%)	C=CC(=O)N1C[C@H](N(C)c2nc(OC[C@@]34CCCN3C[C@H](F)C4)nc3c(F)c(-c4ccc(F)c5sc(N)nc45)c(C(F)(F)F)cc23)C[C@@H]1C [Compound 293]
< 0.5	B (50≤percent of modification <70%)	C (10%≤percent of modification <50%)	B (50≤percent of modification <70%)	C=CC(=O)N1CC[C@@H](N(CC)c2nc(OC[C@@]34CCCN3C[C@H](F)C4)nc3c(F)c(-c4ccc(F)c5sc(N)c(C#N)c45)c(Cl)cc23)[C@H]1C [Compound 418]
< 0.5	A (percent of modification ≥70%)	B (50≤percent of modification <70%)	A (percent of modification ≥70%)	C=CC(=O)N1[C@@H](C)CN(c2nc(OC[C@@]34CCCN3C[C@H](F)C4)nc3c(F)c(-c4ccc(F)c5sc(N)c(C#N)c45)c(C(F)(F)F)cc23)C[C@@H]1C [Compound 321]
< 0.5	B (50≤percent of modification <70%)	C (10%≤percent of modification <50%)	C (10%≤percent of modification <50%)	C=CC(=O)N1CCC(N(CC)c2nc(OC[C@@]34CCCN3C[C@H](F)C4)nc3c(C#N)c(-c4ccc(F)c5sc(N)c(C#N)c45)c(Cl)cc23)[C@H]1C (stereo partly drawn) [Compound 411]
< 0.5	A (percent of modification ≥70%)	A (percent of modification ≥70%)	A (percent of modification ≥70%)	C=CC(=O)N1CC[C@@H](N(C)c2nc(OC[C@@]34CCCN3C[C@H](F)C4)nc3c(F)c(-c4ccc(F)c5sc(N)c(C#N)c45)c(C(F)(F)F)cc23)C1 [Compound 253]
< 0.5	A (percent of modification ≥70%)	A (percent of modification ≥70%)	A (percent of modification ≥70%)	C=CC(=O)N1CC[C@@H](N(CC)c2nc(OC[C@@]34CCCN3C[C@H](F)C4)nc3cc(-c4ccc(F)c5sc(N)c(C#N)c45)c(C(F)(F)F)cc23)C1 [Compound 352]
< 0.5	A (percent of modification ≥70%)	A (percent of modification ≥70%)	A (percent of modification ≥70%)	C=CC(=O)N1CCC(N(C)c2nc(OC[C@@]34CCCN3C[C@H](F)C4)nc3cc(-c4ccc(F)c5sc(N)c(C#N)c45)ccc23)[C@H]1COC (stereo partly drawn) [Compound 389, 4-(4-((1-acryloyl-2-(methoxymethyl)pyrrolidin-3-yl)(methyl)amino)-2-(((2R,7aS)-2-fluorotetrahydro-1H-pyrrolizin-7a(5H)-yl)methoxy)quinazolin-7-yl)-2-amino-7-fluorobenzo[b]thiophene-3-carbonitrile]
< 0.5	A (percent of modification ≥70%)	A (percent of modification ≥70%)	A (percent of modification ≥70%)	C=CC(=O)N1C[C@@H](F)[C@@H](N(CC)c2nc(OCC34CCCN3CCC4)nc3cc(-c4ccc(F)c5sc(N)c(C#N)c45)c(C(F)(F)F)cc23)C1 [Compound 376]
< 0.5	A (percent of modification ≥70%)	A (percent of modification ≥70%)	A (percent of modification ≥70%)	C=CC(=O)N1CC[C@@H](N(CC)c2nc(OC[C@@]34CCCN3C[C@H](F)C4)nc3cc(-c4ccc(F)c5sc(N)c(C#N)c45)c(C#N)cc23)[C@H]1COC [Compound 439]
0.5 to 5	A (percent of modification ≥70%)	C (10%≤percent of modification <50%)	C (10%≤percent of modification <50%)	C=CC(=O)N1C[C@H](N(C)c2nc(OC[C@@]34CCCN3C[C@H](F)C4)nc3c(F)c(-c4ccc(F)c5sc(N)nc45)c(C(F)(F)F)cc23)C2(CC2)C1 [Compound 294]
> 20	C (10%≤percent of modification <50%)	D (percent of modification <10%)	D (percent of modification <10%)	C=CC(=O)N1CC[C@@H](N(C)c2nc(OC[C@@]34CCCN3C[C@H](F)C4)nc3c(F)c(-c4ccc(F)c5sc(C(F)F)nc45)c(C(F)(F)F)cc23)C1 [Compound 310]
< 0.5	A (percent of modification ≥70%)	C (10%≤percent of modification <50%)	C (10%≤percent of modification <50%)	C=CC(=O)N1CC[C@@H](N(C)c2nc(OC[C@@]34CCCN3C[C@H](F)C4)nc3c(F)c(-c4ccc(F)c5sc(N)c(C#N)c45)c(C(F)(F)F)cc23)[C@H]1COC [Compound 401]
< 0.5	C (10%≤percent of modification <50%)	C (10%≤percent of modification <50%)	C (10%≤percent of modification <50%)	C=CC(=O)N1CCC(N(CC)c2nc(OC[C@@H]3C[C@@H](F)CN3C)nc3c(F)c(-c4ccc(F)c5sc(N)c(C#N)c45)c(C(F)(F)F)cc23)[C@H]1COC (stereo partly drawn) [Compound 453]
< 0.5	B (50≤percent of modification <70%)	B (50≤percent of modification <70%)	B (50≤percent of modification <70%)	C=CC(=O)N1C[C@@H](F)[C@@H](N(CC)c2nc(OC[C@@]34CCCN3C[C@H](F)C4)nc3cc(-c4ccc(F)c5sc(N)c(C#N)c45)c(Cl)cc23)C1 [Compound 370]
< 0.5	A (percent of modification ≥70%)	A (percent of modification ≥70%)	A (percent of modification ≥70%)	C=CC(=O)N1CCC(N(C)c2nc(OC[C@@]34CCCN3C[C@H](F)C4)nc3cc(-c4ccc(F)c5sc(N)c(C#N)c45)c(C#N)cc23)[C@H]1C (stereo partly drawn) [Compound 387, 4-((1-acryloyl-2-methylpyrrolidin-3-yl)(methyl)amino)-7-(2-amino-3-cyano-7-fluorobenzo[b]thiophen-4-yl)-2-(((2R,7aS)-2-fluorotetrahydro-1H-pyrrolizin-7a(5H)-yl)methoxy)quinazoline-6-carbonitrile]
< 0.5	A (percent of modification ≥70%)	A (percent of modification ≥70%)	A (percent of modification ≥70%)	C=CC(=O)N1CCN(c2nc(OC[C@@]34CCCN3C[C@H](F)C4)nc3c(F)c(-c4ccc(F)c5sc(N)c(C#N)c45)c(C(F)(F)F)cc23)[C@@H](C)C1 [Compound 347]
< 0.5	A (percent of modification ≥70%)	A (percent of modification ≥70%)	A (percent of modification ≥70%)	C=CC(=O)N1CCN(c2nc(OC[C@@]34CCCN3C[C@H](F)C4)nc3c(F)c(-c4ccc(F)c5sc(N)c(C#N)c45)c(C(F)(F)F)cc23)CC1 [Compound 345]
< 0.5	A (percent of modification ≥70%)	A (percent of modification ≥70%)	A (percent of modification ≥70%)	C=CC(=O)N1C[C@@H](F)[C@@H](N(C)c2nc(OC[C@@]34CCCN3C[C@H](F)C4)nc3c(C#N)c(-c4ccc(F)c5sc(N)c(C#N)c45)c(Cl)cc23)C1 [Compound 379]
